High-throughput results: PubChem, ICCB-Longwood Screening Facility, Harvard Medical School
An excerpt weighted towards active compounds, which were near 0.7% of everything screened.
Sa growth inh = S. aureus growth inhibition at 42 and 30 °C, primary screen, LtaS inhibitor project, RN4220, two temperatures | OD600, 20 h, 42 °C; stronger effect = lower value | relative growth, % (no concentration beside the values) | hit rate 0.53% among 170,000;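 active = relative growth at most 50% at the other temperature and 20+ points below 30 °C, or under 10% at both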
GIV Gai3 FP = GIV-Galpha-i interaction inhibition. AID 1224905. actives 0.42% (n = 210,000). percent of control (FP), % (test concentration not listed). Galpha-i3/FITC-GIV peptide fluorescence polarization, 90 min; stronger effect = lower value; scaled: aluminum fluoride 0%, vehicle 100%;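 active = replicate mean at 85% of control or lower, very high polarization wells dropped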;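 also: wells of about 15 µL received 100 nL stock; the first replicate is given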
HCMV NEC inh = inhibitors of HCMV UL50-UL53 interaction, biochemical, HTRF; HCMV UL50-UL53 nuclear egress complex (human cytomegalovirus); normalized percent inhibition; inhibition, % (no concentration beside the values); hit rate 0.15% among 190,000; AID 1918969, 2023; in the data active = inhibition above about 27%, passing the limit was not always enough
GIV-Gai FP conf = inhibitors of GIV peptide binding to Galpha-i3, confirmation, biochemical, fluorescence polarization, FITC-GIV peptide, rat Galphai3; shares compounds with GIV Gai3 FP; stronger effect = lower value; fluorescence polarization, mP at 100 µM; hit rate 38% among 580; AID 1259350, 2017;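 active = inhibition score of 15 or more, meaning 100 minus mean polarization as percent of control over three replicates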
GIV-Gai AS conf = inhibitors of GIV binding to Galpha-i3, confirmation, orthogonal assay for GIV-Galpha-i inhibitor project, biochemical, AlphaScreen, His-GIV, GST-Galphai3; shares compounds with GIV Gai3 FP; hit rate 39% among 580; purified proteins, 90 min; stronger effect = lower value; AID 1259351, 2017; AlphaScreen counts at 100 µM;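 active = inhibition score at or above a set limit, where the score is 100 minus the three-replicate mean percent of control signal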
An asterisk follows results filed as active; . = not tested or not shown.

1) [N-]=[N+]=c1c(=O)ccc2c(=O)c3ccccc3c(=O)c1=2
2) O=C(/C=C/c1ccco1)N1CCN(Cc2ccccc2)CC1
3) CC1CCN(CCC(=O)Nc2sc3c(c2C#N)CCCC3)CC1
4) Cc1cc(C)cc(C(=O)Nc2ccc(-c3cn4c(C(=O)N(C)C)csc4n3)cc2)c1
5) CCOc1ccc(-c2nonc2NC(=O)C(C)Oc2ccc(F)cc2)cc1C (stereo not drawn)
6) CCOc1ccc(-c2nonc2NC(=O)C(C)Oc2ccc(CC)cc2)cc1C (stereo not drawn)
7) CCOC(=O)c1sc2nc(SCC#N)n(Cc3ccccc3OC)c(=O)c2c1C
8) O=C(CSc1nnc2c(n1)CCCC2)c1ccc(N2CCCC2=O)cc1

Assay by compound,1,2,3,4,5,6,7,8
Sa growth inh,6.1*,.,.,.,.,.,.,106.5
GIV Gai3 FP,62.7*,.,.,108.1,84.2*,104.6,108.7,65.7*
HCMV NEC inh,-128.1,-36.2,-6.4,.,-16.1,0.2,.,25.8
GIV-Gai FP conf,44.1*,.,.,.,65.8,.,.,53*
GIV-Gai AS conf,2044*,.,.,.,40925,.,.,2430*

9) O=C(CSc1nnc(-c2ccccn2)c(-c2ccccn2)n1)c1ccc(N2CCCC2=O)cc1
10) CC(=O)Oc1ccccc1-c1nc2s/c(=C3\C(=O)N(CC(N)=O)c4ccccc43)c(=O)n2n1
11) CCOC(=O)C1=C(C)N=c2s/c(=C\c3cc([N+](=O)[O-])ccc3N3CCOCC3)c(=O)n2C1c1ccc(F)cc1 (stereo not drawn)
12) CCOC(=O)C1=C(C)N=c2s/c(=C\c3cc([N+](=O)[O-])ccc3N3CCOCC3)c(=O)n2C1c1ccc(OC)cc1 (stereo not drawn)
13) Cn1nc(-c2nc(C3CC3)no2)c2c1CCN(S(=O)(=O)c1ccccc1Cl)C2
14) CCCNc1ccc(-c2nc(-c3ccco3)no2)cc1[N+](=O)[O-]
15) CC(C)Nc1ccc(-c2nc(-c3ccco3)no2)cc1[N+](=O)[O-]
16) COc1ccc(N2C(=O)/C(=C/c3ccc(OCC(=O)O)c(Br)c3)C(=O)NC2=S)cc1

Assay by compound,9,10,11,12,13,14,15,16
Sa growth inh,98.8,.,.,.,.,99.0,96.7,.
GIV Gai3 FP,107.0,105.1,73.9*,104.2,103.8,96.0,90.4,78.5*
HCMV NEC inh,-44.1,.,-18.1,-3.4,.,-11.7,-3.5,-34.1
GIV-Gai FP conf,.,.,63.7,.,.,.,81.2,44.6*
GIV-Gai AS conf,.,.,55281,.,.,.,30875,20466*

17) COc1ccc(N2C(=O)NC(=O)/C(=C\c3ccc(OCC(=O)O)c(Br)c3)C2=O)cc1
18) Cc1nnc(NCC(C)O)[nH]c1=O (stereo not drawn)
19) CCOC(=O)C1CCCN(C(=O)Cn2c(=O)c3ccccc3n3c(=S)sc(-c4ccccc4F)c23)C1 (stereo not drawn)
20) CC1CCN(C(=O)Cn2c(=O)c3ccccc3n3c(=S)sc(-c4ccccc4F)c23)CC1
21) CCOc1ccc(C(O)(C(C)C)C(CN2CCOCC2)c2ccccc2)cc1 (stereo not drawn)
22) CCCS(=O)(=O)NC1COc2ccccc2C1 (stereo not drawn)
23) O=C(CN1C2=NCCCN2c2ccccc21)c1ccc(Cl)c(Cl)c1
24) O=C(CN1C2=NCCCN2c2ccccc21)c1ccc(Cl)cc1

Assay by compound,17,18,19,20,21,22,23,24
Sa growth inh,.,91.4,.,.,.,.,.,.
GIV Gai3 FP,95.6,104.3,103.4,81.3*,106.1,106.5,114.9,90.2
HCMV NEC inh,-17.2,.,5.3,-32.6,-5.3,-19.7,.,.
GIV-Gai FP conf,.,.,.,86.6,.,.,.,68.3
GIV-Gai AS conf,.,.,.,20249,.,.,.,45914

25) CCOc1ccc(N2C(=O)CN(Cc3ccccc3)[C@H]3CS(=O)(=O)C[C@H]32)cc1
26) Cn1ccnc1C(=O)c1cc(Sc2ncccc2C#N)nc2ccccc12
27) Cc1ccc(S(=O)(=O)/N=C(\N)Nc2nc3ccccc3s2)cc1
28) c1cc2c(cc1CNc1nc3nonc3nc1NCc1ccc3c(c1)OCO3)OCO2
29) CCOC(=O)c1nc2cc(C)c(C)cc2nc1NCc1ccc2c(c1)OCO2
30) COc1ccc(Cn2nnc3cc(C(=O)NCc4ccccc4OC)ccc32)cc1
31) N#Cc1ccc(NC(=O)Cc2ccccc2)cc1
32) Fc1ccc(NC(=S)N2CCCCC2)cc1

Assay by compound,25,26,27,28,29,30,31,32
Sa growth inh,.,89.5,71.3,.,.,.,93.0,78.0
GIV Gai3 FP,107.5,.,.,106.9,80.4*,112.1,.,102.1
HCMV NEC inh,11.9,-43.8,-8.0,-2.5,-12.3,.,0.3,-3.2
GIV-Gai FP conf,.,.,.,.,62.5,.,.,.
GIV-Gai AS conf,.,.,.,.,44491,.,.,.

33) COc1cccc(NC(=O)c2ccc3nsnc3c2)c1
34) CCN(CC)C(=S)Nc1ccc2nsnc2c1
35) S=C(Nc1ccc2nsnc2c1)N1CCCC1
36) Cc1cc(C)cc(N(CC(=O)O)S(=O)(=O)c2c(C)n[nH]c2C)c1
37) COc1ccccc1OCc1nn2c(CSc3ccccc3)nnc2s1
38) CCOc1ccc(NC(=O)c2ccc3[nH]c(C)cc(=O)c3c2)cc1
39) Cc1ccc(NC(=O)c2ccc3[nH]c(C)cc(=O)c3c2)cc1
40) COc1ccc(C2C(C(=O)Nc3cccc(OC)c3)CCC(=O)N2c2ccc(OC)cc2)cc1 (stereo not drawn)

Assay by compound,33,34,35,36,37,38,39,40
Sa growth inh,92.0,92.8,86.4,100.4,.,108.9,87.8,109.3
GIV Gai3 FP,101.2,65.6*,80.9*,101.2,107.9,98.0,86.0,98.6
HCMV NEC inh,-128.1,.,.,.,-11.0,-7.1,-0.6,2.5
GIV-Gai FP conf,.,26.7*,23.5*,.,.,.,80.5,.
GIV-Gai AS conf,.,10807*,11675*,.,.,.,29554,.

41) Cc1nc(N2CCN(C)CC2)c2c(C)c(C(=O)Nc3cccc(Cl)c3)sc2n1
42) COc1ccc(Cl)cc1NC(=O)c1sc2nc(C)nc(N3CCN(C)CC3)c2c1C
43) CN(CCCC(=O)O)S(=O)(=O)c1ccc2c(c1)Cc1cc(S(=O)(=O)N(C)CCCC(=O)O)ccc1-2
44) CCCCN(C)S(=O)(=O)c1ccc2c(c1)CC(C)N2C(C)=O (stereo not drawn)
45) O=C(Cn1c(=O)n(Cc2ccc(C(=O)NCc3ccco3)cc2)c(=O)c2sccc21)Nc1ccc(F)cc1
46) CC(=O)Nc1ccc2nc3c(=O)[nH]c(=O)[nH]c3nc2c1
47) CCCC(=O)Nc1ccc2[nH]c(=O)[nH]c2c1
48) CCCCCCC(=O)Nc1ccc2nc3c(=O)[nH]c(=O)[nH]c3nc2c1

Assay by compound,41,42,43,44,45,46,47,48
Sa growth inh,.,.,.,95.0,99.8,97.7,107.3,.
GIV Gai3 FP,94.3,97.0,82.8*,99.6,108.2,66.1*,.,83.2*
HCMV NEC inh,.,.,.,-16.6,-13.0,-145.6,-1.8,-124.1
GIV-Gai FP conf,65.3,.,50.1*,.,.,58.1*,.,44.3*
GIV-Gai AS conf,54788,.,26370*,.,.,5170*,.,16182*

49) CC(=O)Nc1ccc2sc(C)nc2c1
50) CC1(C)Nc2ccccc2-c2c1ssc2=Nc1cc(Cl)cc(Cl)c1
51) COC(=O)CSc1ccc2c3c(cccc13)C(=O)c1ccccc1-2
52) COC(=O)CSc1ncnc2ccccc12
53) N#CC(C(=O)NCc1ccccc1)c1nc2ccccc2nc1N1CCCC1 (stereo not drawn)
54) N#CC(C(=O)NCCc1ccccc1)c1nc2ccccc2nc1N1CCOCC1 (stereo not drawn)
55) O=C(C1=COCCO1)N1CCN(c2nc3c(F)cc(F)cc3s2)CC1
56) O=C(c1ccccc1)C1C(=O)c2ccccc2C1=O

Assay by compound,49,50,51,52,53,54,55,56
Sa growth inh,119.9,.,.,99.2,89.6,102.1,.,141.0
GIV Gai3 FP,101.1,109.6,67.7*,.,.,86.0,104.8,97.0
HCMV NEC inh,-18.5,.,.,5.0,-17.2,-9.5,.,-37.7
GIV-Gai FP conf,.,.,22.4*,.,.,76.2,.,.
GIV-Gai AS conf,.,.,45087,.,.,31052,.,.

Reformatted: 4 of the compounds above.
The line under a structure holds: Sa growth inh, GIV Gai3 FP, HCMV NEC inh, GIV-Gai FP conf, GIV-Gai AS conf
#51 COC(=O)CSc1ccc2c3c(cccc13)C(=O)c1ccccc1-2
    ., 67.7*, ., 22.4*, 45087
#52 COC(=O)CSc1ncnc2ccccc12
    99.2, ., 5.0, ., .
#53 N#CC(C(=O)NCc1ccccc1)c1nc2ccccc2nc1N1CCCC1 (stereo not drawn)
    89.6, ., -17.2, ., .
#54 N#CC(C(=O)NCCc1ccccc1)c1nc2ccccc2nc1N1CCOCC1 (stereo not drawn)
    102.1, 86.0, -9.5, 76.2, 31052
